From patent publication US20090017452A1, “METHODS AND COMPOSITIONS RELATING TO THE PHARMACOGENETICS OF DIFFERENT GENE VARIANTS” (UNIVERSITY OF CHICAGO, priority 2004, published 2009)

Test: Irinotecan and metabolite AUC by ABCC2 3972C>T genotype in cancer patients
Conditions: 350 mg/m^2 IV irinotecan

CCc1c2c(nc3ccc(O[C@@H]4O[C@H](C(=O)O)[C@@H](O)[C@H](O)[C@H]4O)cc13)-c1cc3c(c(=O)n1C2)COC(=O)[C@]3(O)CC [SN-38G, 10O-glucuronyl-SN-38]
AUC ratio SN-38G/SN-38 in TT patients compared to CT and CC patients: Higher values of AUC ratios | AUC versus ABCC2 3972C>T genotype (TT compared to CT and CC) (patients with 6/6 and 6/7 UGT1A1 genotype (n=54)): higher AUC values
